The values that follow are results of earlier work, collected in US10976308B2, “Plant-derived nanofibrillar cellulose hydrogel for cell culture and chemical testing” (UPM-KYMMENE CORPORATION, priority 2014, dated 2021).

The test system of one data set is 3D liver models. The following applies: by Khetani et al. 2013.
For data set [1] the following is noted: according to Khetani et al.

In the case of `O=C(O)Cc1ccccc1Nc1c(Cl)cccc1Cl` [diclofenac], the “Toxicity in 3D liver models” value in the data set with 3D liver models is on record as “shows toxicity in all tested 3D models”. Further, the “Clinical drug-induced liver injury (DILI)” value in data set [1] is recorded as “displays clinical DILI”.
